Results reported in patent US7691848B2, “Pyrrolobenzodiazepine arylcarboxamides and derivatives thereof as follicle-stimulating hormone receptor antagonists” (Wyeth, priority 2005, dated 2010).

Chains of the proteins cited; added tags and fusions are not shown. Residues count along the entry.
UniProt P16473, 21-764: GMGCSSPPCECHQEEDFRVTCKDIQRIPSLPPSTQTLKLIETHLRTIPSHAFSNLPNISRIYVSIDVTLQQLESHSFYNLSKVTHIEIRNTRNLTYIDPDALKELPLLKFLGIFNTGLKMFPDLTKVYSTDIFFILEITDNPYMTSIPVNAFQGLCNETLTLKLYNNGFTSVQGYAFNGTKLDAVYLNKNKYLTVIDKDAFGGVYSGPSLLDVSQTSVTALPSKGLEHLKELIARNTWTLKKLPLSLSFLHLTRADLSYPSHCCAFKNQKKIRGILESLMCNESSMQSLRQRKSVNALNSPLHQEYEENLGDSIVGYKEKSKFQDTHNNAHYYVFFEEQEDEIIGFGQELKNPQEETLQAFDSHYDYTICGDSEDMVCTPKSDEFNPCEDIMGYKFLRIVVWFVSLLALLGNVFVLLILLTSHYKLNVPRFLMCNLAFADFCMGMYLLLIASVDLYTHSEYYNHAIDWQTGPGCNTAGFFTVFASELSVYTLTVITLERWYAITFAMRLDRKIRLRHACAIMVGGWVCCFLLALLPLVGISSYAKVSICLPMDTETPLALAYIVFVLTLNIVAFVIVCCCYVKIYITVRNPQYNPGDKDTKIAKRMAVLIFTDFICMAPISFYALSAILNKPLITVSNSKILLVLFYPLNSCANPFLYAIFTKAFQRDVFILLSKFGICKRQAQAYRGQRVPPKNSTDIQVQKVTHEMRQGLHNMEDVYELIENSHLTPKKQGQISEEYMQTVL

What was measured:
Format in all cases: cell-based
human FSH receptor = biological target: T1, human FSH receptor (Homo sapiens, UniProt P23945); assay: Follicle-Stimulating Hormone Receptor-Dependent Cre-Luciferase Reporter Gene Assay (CHO FSH-R 6CRE-Luc cells); conditions: positive control
T1 construct: host or cells: CHO-K1 (CHO FSH-R 6CRE-Luc, 1D7 cells)
T1 sequence (P23945 18-695): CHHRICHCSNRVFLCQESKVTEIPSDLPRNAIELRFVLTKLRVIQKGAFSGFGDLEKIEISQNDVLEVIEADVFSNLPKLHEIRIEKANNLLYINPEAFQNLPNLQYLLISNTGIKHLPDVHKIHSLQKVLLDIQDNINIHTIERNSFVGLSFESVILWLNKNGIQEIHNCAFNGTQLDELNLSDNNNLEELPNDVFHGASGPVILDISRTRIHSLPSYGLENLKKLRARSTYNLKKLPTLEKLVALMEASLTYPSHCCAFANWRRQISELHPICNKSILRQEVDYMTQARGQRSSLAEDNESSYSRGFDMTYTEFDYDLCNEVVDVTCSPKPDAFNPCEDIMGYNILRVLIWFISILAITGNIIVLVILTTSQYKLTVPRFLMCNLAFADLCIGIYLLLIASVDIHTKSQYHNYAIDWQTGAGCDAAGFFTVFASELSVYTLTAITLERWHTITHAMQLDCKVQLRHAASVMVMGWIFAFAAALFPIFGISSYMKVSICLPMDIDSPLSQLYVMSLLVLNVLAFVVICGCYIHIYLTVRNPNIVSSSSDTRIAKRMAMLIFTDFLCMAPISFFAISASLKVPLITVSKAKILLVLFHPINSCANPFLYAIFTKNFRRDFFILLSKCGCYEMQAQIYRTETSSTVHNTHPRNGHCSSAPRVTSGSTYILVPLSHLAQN
Source text: Follicle-Stimulating Hormone Receptor-Dependent Cre-Luciferase Reporter Gene Assay for the Identification of Follicle-Stimulating Hormone (FSH) Antagonists
A Chinese hamster ovarian cell line that stably produces the human FSH receptor and a luciferase reporter gene regulated by cAMP response elements was used to identify and determine the relative potencies of human FSH receptor antagonists. See for example, Kelton, C. A., et al. Mol. Cell. Endocrinol. 89:141-151 (1992), Tilly, J. L., et al. Endocrinology 131:799-806(1992), and George, S. E., et al. J. Biomol. Screening 2:235-240 (1997).
Compound Vehicle: Stock compounds were solubilized in an appropriate vehicle, e.g., phosphate buffered saline (PBS) or dimethyl sulfoxide (DMSO), at 30 mM. The compounds were subsequently diluted in DMSO to working dilutions of 1 and 20 or 30 mM for 2-dose testing format and 1 μM-10 mM for dose-response format. The DMSO dilutions were diluted 500-fold in sterile growth medium [D-MEM/F-12 (GIBCO/BRL; Grand Island, NY) containing 15 mM HEPES, 2 mM 1-glutamine, pyridoxine hydrochloride, phenol red and 5% FetalClone® II (HyClone Laboratories, Inc; Logan, Utah), 0.2% DMSO, 100 units penicillin G/ml, and 100 μg streptomycin sulfate/ml (GIBCO/BRL)]. The concentration of the vehicle in each of the compound dilutions was the same. […]

hFSH-R = biological target: T2, hFSH-R (Homo sapiens, UniProt P23945); assay: cAMP accumulation (RIA) in CHO-3D2 cells (hFSH-R), hFSH-induced; conditions: agonist mode, four-parameter logistic equation
T2 construct: expressed in transfected cells; host or cells: CHO-3D2 cells (CHO-K1 parental line)
T2 sequence (P23945 18-695): T1 sequence (P23945 18-695)
Method: In Vitro Bio-Assay, Selectivity and Dependency of Agonists and Antagonists to the FSH Receptor
This assay was used to verify in vitro potency, efficacy, selectivity and receptor dependency of hits found to inhibit an FSH-R-CRE-luciferase driven reporter.
Compound Vehicle: Stock compounds were solubilized in 100% DMSO (Sigma-Aldrich Chemical Co., St. Louis, Mo.) at a concentration of 30 mM. The compounds subsequently were diluted in sterile assay medium consisting of Opti-MEM® I (Invitrogen/Life Technologies, Carlsbad, Calif.) with 0.1% (w/v) BSA (Sigma-Aldrich) prior to use in the bio-assay. The final concentration of DMSO in the assay was 0.1%.
The day prior to the experiment, CHO-3D2 cells (hFSH-R)(1) were plated into 96-well tissue culture plates (Falcon®, BD Biosciences, San Jose, Calif.) at a density of 30,000 cells/well in DMEM/F12 medium (Invitrogen/Life Technologies) supplemented with 5% Fetal Clone II (Hyclone), 2 mM L-glutamine (Invitrogen/Life Technologies) and penicillin/streptomycin (100 U/ml, Invitrogen/Life Technologies). Plated cells are then incubated at 37° C. in a humidified 5% CO2/95% air atmosphere.
Assay: On the day of the assay, cells were washed three times with 100 μl/well of assay medium consisting of Opti-MEM® I (Invitrogen/Life Technologies) with 0.1% (w/v) BSA (Sigma-Aldrich). Medium was removed and 100 μl of assay medium was added to each well. […] Reactions were terminated by the addition of 50 μl of 0.2N hydrochloric acid to each well and cAMP-accumulation was measured by radioimmunoassay (RIA) using a commercially available kit (Amersham Biosciences, Piscataway, N.J.).
All test compounds were evaluated in a dose-response paradigm ranging from 0.01 to 30 μM. Controls and test compounds were evaluated in quadruplicate in a 96-well format. […] The ability of the compounds to inhibit the cAMP-accumulation induced by hFSH was evaluated by RIA.
In every assay, the EC20 concentration was calculated and only those experiments in which the EC20 concentrations were equal to 1.85±0.4 ng/mL were accepted as valid. […]

hTSH-R = biological target: T3, hTSH-R (Homo sapiens, UniProt P16473); assay: Selectivity: cAMP accumulation in CHO-25 (hTSH-R) cells, hTSH-induced; conditions: CHO-25 cells
T3 construct: expressed in transfected cells; host or cells: CHO-25 cells
Method: cAMP accumulation assays using CHO-25 (hTSH-R) cells were performed as described above for the CHO-3D2 cells with the following exceptions: CHO-25 cells were plated at a density of 50,000 cells/well (2). All test compounds were evaluated in a dose-response paradigm ranging from 0.01 to 30 μM. Controls and test compounds were evaluated in quadruplicate. Cells were treated with vehicle, hTSH at EC20 (5 nM; hTSH >98% pure, Cortex Biochem, Inc.), or the compounds in the presence or absence of the hTSH at its EC20 concentration. The ability of the compounds to inhibit cAMP-accumulation induced by hTSH was evaluated by RIA.
Along with the test compounds, hTSH was also run as a positive control in the agonist mode using concentrations ranging from 0.01 μM-1000 μM.
cAMP accumulation is expressed as fmol/ml. cAMP accumulation in the agonist mode, or the ability of the compound to inhibit hFSH-, hTSH-, or forskolin-induced cAMP-accumulation in the antagonist mode, was compared to the appropriate negative and positive controls. Data were analyzed by one-way analysis of variance and significant differences between treatments and control determined by Least Significant Difference test.

| Substance | EC50 of phFSH (human FSH receptor) | EC100 of phFSH (human FSH receptor) | apparent EC20, cAMP accumulation (hFSH-R) | apparent EC50, cAMP accumulation (hFSH-R) | apparent EC80, cAMP accumulation (hFSH-R) | EC20 of hTSH, cAMP accumulation (hTSH-R) |
| --- | --- | --- | --- | --- | --- | --- |
| hFSH: Purified human FSH purchased from Cortex Biochem, Inc.; positive control | 0.4 ng/mL | 1000 ng/mL | 1.85 ng/mL | 6.03 ng/mL | 22.55 ng/mL |  |
| hTSH: hTSH >98% pure, Cortex Biochem, Inc.; positive control in selectivity assay |  |  |  |  |  | 5 nM |
